The list shows a part of the results, in another mix than the full data. Active and inactive are the calls of the source. The calls were made as follows: active = hit-call score of the fitted dose curve at least 0.9, where 1 is the maximum; inactive = score below 0.9.

Sequences of proteins named here, by UniProt entry; tags and fusion partners are left off.
UniProt P35869, whole entry: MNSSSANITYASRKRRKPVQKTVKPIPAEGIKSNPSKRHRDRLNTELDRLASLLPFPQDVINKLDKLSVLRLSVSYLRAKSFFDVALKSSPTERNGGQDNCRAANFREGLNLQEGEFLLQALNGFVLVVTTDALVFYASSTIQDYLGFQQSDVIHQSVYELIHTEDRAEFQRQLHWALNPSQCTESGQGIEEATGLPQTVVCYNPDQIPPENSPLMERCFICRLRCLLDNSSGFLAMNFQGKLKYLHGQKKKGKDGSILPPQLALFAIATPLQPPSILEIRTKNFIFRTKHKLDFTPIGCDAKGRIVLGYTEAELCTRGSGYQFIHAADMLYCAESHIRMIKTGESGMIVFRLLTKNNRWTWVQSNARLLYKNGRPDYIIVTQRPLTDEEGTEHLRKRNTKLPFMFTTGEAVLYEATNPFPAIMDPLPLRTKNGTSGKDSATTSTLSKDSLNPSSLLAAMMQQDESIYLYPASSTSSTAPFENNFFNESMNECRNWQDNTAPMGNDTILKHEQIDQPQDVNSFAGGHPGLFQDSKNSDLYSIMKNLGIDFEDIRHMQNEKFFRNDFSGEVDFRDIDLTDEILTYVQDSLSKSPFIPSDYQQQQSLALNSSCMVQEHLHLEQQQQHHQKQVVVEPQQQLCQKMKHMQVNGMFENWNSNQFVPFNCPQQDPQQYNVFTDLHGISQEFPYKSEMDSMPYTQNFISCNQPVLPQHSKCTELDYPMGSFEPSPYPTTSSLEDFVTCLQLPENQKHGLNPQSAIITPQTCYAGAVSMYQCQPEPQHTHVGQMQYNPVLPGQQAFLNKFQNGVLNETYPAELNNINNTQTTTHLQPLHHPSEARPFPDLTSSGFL
UniProt Q01094, whole entry: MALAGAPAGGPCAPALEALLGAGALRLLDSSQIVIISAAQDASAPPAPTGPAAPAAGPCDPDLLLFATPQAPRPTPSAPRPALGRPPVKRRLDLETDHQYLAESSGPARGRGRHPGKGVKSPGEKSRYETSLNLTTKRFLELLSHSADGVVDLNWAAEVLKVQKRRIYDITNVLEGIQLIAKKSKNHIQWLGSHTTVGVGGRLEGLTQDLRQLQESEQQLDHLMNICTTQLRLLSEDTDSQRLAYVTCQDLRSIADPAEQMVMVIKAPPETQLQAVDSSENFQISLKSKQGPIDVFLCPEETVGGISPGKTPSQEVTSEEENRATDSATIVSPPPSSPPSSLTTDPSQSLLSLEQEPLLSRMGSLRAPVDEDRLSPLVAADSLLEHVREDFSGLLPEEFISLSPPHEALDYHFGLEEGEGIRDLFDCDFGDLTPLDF
UniProt Q9Y261, whole entry: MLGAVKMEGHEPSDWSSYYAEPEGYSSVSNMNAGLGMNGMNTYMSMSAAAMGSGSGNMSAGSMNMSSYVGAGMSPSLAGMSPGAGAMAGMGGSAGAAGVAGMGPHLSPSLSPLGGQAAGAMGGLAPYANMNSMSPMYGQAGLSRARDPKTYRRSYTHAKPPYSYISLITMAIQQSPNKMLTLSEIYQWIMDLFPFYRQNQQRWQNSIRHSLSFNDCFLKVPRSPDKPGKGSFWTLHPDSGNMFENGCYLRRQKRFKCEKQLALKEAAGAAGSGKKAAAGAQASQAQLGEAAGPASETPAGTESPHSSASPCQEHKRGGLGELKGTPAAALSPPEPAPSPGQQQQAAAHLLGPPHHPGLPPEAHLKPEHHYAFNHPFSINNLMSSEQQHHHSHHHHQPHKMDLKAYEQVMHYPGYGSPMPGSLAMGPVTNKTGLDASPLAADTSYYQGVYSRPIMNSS
UniProt Q96RI1, whole entry: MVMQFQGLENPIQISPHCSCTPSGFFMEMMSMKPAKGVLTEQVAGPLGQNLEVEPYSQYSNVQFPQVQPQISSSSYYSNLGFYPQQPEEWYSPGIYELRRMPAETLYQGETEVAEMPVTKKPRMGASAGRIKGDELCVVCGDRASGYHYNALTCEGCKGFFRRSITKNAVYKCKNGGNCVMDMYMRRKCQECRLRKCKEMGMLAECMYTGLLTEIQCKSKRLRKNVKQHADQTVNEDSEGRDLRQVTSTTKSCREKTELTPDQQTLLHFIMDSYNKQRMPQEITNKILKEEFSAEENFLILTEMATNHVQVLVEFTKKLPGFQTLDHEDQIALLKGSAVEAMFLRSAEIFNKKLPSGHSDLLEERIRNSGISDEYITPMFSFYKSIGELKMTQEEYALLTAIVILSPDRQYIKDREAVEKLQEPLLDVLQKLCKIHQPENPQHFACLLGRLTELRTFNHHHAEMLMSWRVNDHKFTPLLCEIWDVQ
UniProt Q16665, whole entry: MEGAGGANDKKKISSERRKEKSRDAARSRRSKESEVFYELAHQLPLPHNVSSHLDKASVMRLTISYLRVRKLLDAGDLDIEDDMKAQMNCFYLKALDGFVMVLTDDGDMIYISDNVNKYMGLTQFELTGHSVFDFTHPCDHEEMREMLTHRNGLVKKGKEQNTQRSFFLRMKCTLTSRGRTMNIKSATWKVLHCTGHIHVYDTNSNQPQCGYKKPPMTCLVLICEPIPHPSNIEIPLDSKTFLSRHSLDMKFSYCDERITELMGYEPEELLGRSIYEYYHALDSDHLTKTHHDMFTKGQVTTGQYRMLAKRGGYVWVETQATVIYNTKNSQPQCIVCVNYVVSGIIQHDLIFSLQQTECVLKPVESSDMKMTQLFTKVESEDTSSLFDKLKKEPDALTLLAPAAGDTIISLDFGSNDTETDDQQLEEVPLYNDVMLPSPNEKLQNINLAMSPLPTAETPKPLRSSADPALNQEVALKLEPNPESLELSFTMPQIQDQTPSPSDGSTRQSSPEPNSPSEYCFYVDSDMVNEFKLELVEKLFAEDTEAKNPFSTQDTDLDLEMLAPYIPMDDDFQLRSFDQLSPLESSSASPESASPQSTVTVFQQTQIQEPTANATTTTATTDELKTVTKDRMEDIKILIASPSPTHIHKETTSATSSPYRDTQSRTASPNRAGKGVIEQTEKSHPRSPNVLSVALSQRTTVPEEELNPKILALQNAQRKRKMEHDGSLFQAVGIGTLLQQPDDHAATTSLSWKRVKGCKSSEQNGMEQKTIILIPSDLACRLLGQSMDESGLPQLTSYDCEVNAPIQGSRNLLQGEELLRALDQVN
UniProt Q9UBC0, whole entry: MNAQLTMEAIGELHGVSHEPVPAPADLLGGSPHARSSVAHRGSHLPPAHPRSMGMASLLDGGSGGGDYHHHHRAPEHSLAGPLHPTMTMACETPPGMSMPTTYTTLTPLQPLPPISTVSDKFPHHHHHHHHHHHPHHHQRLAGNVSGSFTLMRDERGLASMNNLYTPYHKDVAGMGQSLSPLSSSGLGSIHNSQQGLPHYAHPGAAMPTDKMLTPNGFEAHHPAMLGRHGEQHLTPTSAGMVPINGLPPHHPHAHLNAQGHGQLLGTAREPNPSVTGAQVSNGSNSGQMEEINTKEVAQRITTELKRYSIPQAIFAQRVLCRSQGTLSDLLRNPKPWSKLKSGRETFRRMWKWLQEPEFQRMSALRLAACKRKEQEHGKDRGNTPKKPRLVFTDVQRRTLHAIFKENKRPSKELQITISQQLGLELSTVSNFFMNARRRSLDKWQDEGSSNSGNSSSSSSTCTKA
UniProt P10276, whole entry: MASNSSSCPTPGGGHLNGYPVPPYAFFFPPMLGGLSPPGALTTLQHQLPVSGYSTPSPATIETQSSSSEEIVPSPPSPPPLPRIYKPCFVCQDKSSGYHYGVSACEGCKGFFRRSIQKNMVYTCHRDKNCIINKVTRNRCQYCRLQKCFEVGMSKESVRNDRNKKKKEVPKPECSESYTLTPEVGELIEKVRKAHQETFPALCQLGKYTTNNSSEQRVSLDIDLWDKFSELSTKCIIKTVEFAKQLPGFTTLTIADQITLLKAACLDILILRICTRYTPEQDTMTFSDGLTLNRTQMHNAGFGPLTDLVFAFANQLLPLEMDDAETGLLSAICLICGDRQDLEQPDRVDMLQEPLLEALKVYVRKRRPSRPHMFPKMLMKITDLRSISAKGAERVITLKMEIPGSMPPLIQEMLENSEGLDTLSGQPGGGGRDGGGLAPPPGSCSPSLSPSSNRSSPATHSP

The source of these data is PubChem BioAssay (EPA / NIEHS).

Test [1] can be described thus: ATG_CRE_CIS: Attagene CIS-FACTORIAL HepG2 Assay for human cAMP Responsive Element (CRE) binding protein 3 (AID 2282926). Conditions: HepG2 CRE cis-reporter, Attagene multiplexed mRNA; actives raise or lower the signal. The essentials:
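Human liver HepG2, transient MRTU transfection, 24 h compound exposure. Total RNA → oligo(dT) RT → PCR → 6-FAM primer extension → HpaI cut → CE. Activity called both directions vs DMSO.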

Test [2] is described as follows: ATG_CMV_CIS: Attagene CIS-FACTORIAL HepG2 Assay for human CMV (Internal Marker) (AID 2282928).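 Also: endpoint acts as a background internal control marker rather than a target.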 Conditions: HepG2 CMV promoter reporter, transcription factor profiling; actives raise or lower the signal. The essentials:
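Endogenous transcription factor activity read in HepG2 via transfected cis-promoter reporter units. After 24 h dosing, reporter mRNA measured by RT-PCR/capillary electrophoresis; gain or loss of signal fit relative to DMSO.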

Test [3] can be described thus: ATG_DR4_LXR_CIS: Attagene CIS-FACTORIAL HepG2 Assay for human Liver X Receptor (LXR), DR4 submotif (AID 2282929). Conditions: HepG2 Attagene DR4 cis-reporter, mRNA transcription; actives raise or lower the signal. Summed up:
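Total RNA from 24 h-treated, MRTU-transfected HepG2 cells underwent reverse transcription, PCR, fluorescent primer extension and restriction digestion before capillary electrophoresis. Both increases and decreases in reporter signal were fitted against DMSO.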

In test [4] the target is Aryl hydrocarbon receptor (Homo sapiens) (UniProt P35869). Put plainly: ATG_Ahr_CIS: Attagene CIS-FACTORIAL HepG2 Assay for human Aryl Hydrocarbon Receptor (Ahr) (AID 2282930). Conditions: HepG2 AhR cis-factorial reporter transcription; actives raise or lower the signal. Summed up:
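Endogenous factor activity is tracked through cis-promoter reporter units transfected into HepG2 cells. Transcript levels at 24 h are read by fluorescent RT-PCR and capillary electrophoresis, with activity in either direction scored relative to DMSO.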

Test [5] can be described thus: ATG_AP_1_CIS: Attagene CIS-FACTORIAL HepG2 Assay for human Activator Protein 1 (AP-1) (AID 2282931). Conditions: HepG2 Attagene cis-factorial AP-1 reporter mRNA; actives raise or lower the signal. Summed up: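 HepG2, transient cis-reporter transfection; 24 h; readout RT-PCR/CE fluorescence; DMSO baseline, gain and loss fitted.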
The nature of test [6]: ATG_BRE_CIS: Attagene CIS-FACTORIAL HepG2 Assay for human Bone Morphogenetic Protein (BMP) Response Element (BRE) (AID 2282933). Particulars: HepG2 BMP response element reporter, Attagene transcription factor profiling; actives raise or lower the signal. The essentials: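 Gain- or loss-of-signal was derived by bidirectional fitting against DMSO controls. The signal came from reporter mRNA, measured by RT-PCR and capillary electrophoresis, in HepG2 cells transiently carrying multiple reporter units and dosed for 24 h.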

The target of test [7] is Transcription factor E2F1 (Homo sapiens) (UniProt Q01094). The test is described as follows: ATG_E2F_CIS: Attagene CIS-FACTORIAL HepG2 Assay for human E2F Transcription Factor 1 (AID 2282935). Conditions: HepG2 Attagene cis-reporter, E2F reporter RNA transcripts; actives raise or lower the signal. The essentials: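 Endogenous E2F1 activity read through cis-promoter reporter units transfected into HepG2. After 24 h compound treatment, reporter mRNA measured by RT-PCR, HpaI digestion and capillary electrophoresis. Bidirectional fit versus DMSO.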

The nature of test [8]: ATG_E_Box_CIS: Attagene CIS-FACTORIAL HepG2 Assay for human Enhancer Box (E-box) (AID 2282936). Particulars: HepG2 E-box cis-reporter transcription, actives raise or lower the signal. Summed up: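 HepG2 cells transiently transfected with multiplexed cis-element reporter units, dosed 24 h; reporter mRNA quantified by RT-PCR, 6-FAM labelling, HpaI digestion and capillary electrophoresis. E-box (USF1) signal fitted bidirectionally vs DMSO.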

The nature of test [9]: ATG_M_61_CIS: Attagene CIS-FACTORIAL HepG2 Assay for M61 Transcription Factor (Internal Marker) (AID 2282937). Particulars: HepG2 Attagene CIS-FACTORIAL M61 internal marker reporter; actives raise or lower the signal. Summed up: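 Transfect HepG2 with MRTUs; dose 24 h; isolate RNA; reverse-transcribe with DNase I treatment; PCR-amplify, FAM-label and cut with HpaI for 2 h at 37 C; resolve by CE. Bidirectional fitting against DMSO.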

A short description of test [10]: ATG_M_19_CIS: Attagene CIS-FACTORIAL HepG2 Assay for M19 Transcription Factor (Internal Marker) (AID 2282939). Conditions: HepG2 Attagene CIS-FACTORIAL M19 internal marker reporter; actives raise or lower the signal. Summed up: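 Following a 24 h exposure, RNA from transfected HepG2 cells was reverse-transcribed, PCR-amplified with reporter-specific primers, end-labelled with 6-FAM and HpaI-digested before capillary separation. Values represent gain or loss versus DMSO.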

Test [11] addresses Hepatocyte nuclear factor 3-beta (Homo sapiens) (UniProt Q9Y261). Put plainly: ATG_FoxA2_CIS: Attagene CIS-FACTORIAL HepG2 Assay for human Forkhead box A2 (FOXA2) (AID 2282942). Particulars: HepG2 cis-reporter transcription factor activity, 24 h; actives raise or lower the signal. Summed up: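 24 h dosing of HepG2 bearing cis-reporter constructs; mRNA readout by RT-PCR/CE fluorescence; bidirectional fit, DMSO baseline.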

A short description of test [12]: ATG_GATA_CIS: Attagene CIS-FACTORIAL HepG2 Assay for human GATA Binding Protein (AID 2282944). Conditions: HepG2 GATA cis-element reporter, Attagene multiplex mRNA; actives raise or lower the signal. The essentials:
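DMSO serves as negative control and baseline for bidirectional fitting of reporter mRNA changes. HepG2 cells bearing transiently transfected cis-promoter reporters were exposed 24 h; transcripts detected via RT-PCR and capillary electrophoresis.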

Test [13] has as its target Bile acid receptor (Homo sapiens) (UniProt Q96RI1). The test is described as follows: ATG_IR1_CIS: Attagene CIS-FACTORIAL HepG2 Assay for human Nuclear Receptor Subfamily 1 Group H Member 4 (NR1H4), IR1 submotif (AID 2282946). Conditions: IR1 reporter transcription, actives raise or lower the signal. The essentials: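 HepG2 cells transiently transfected with multiple cis-promoter-driven reporter units to measure endogenous transcription factor activity; 24 h exposure. Reporter mRNA read by RT-PCR, FAM labelling, HpaI digestion and capillary electrophoresis. Bidirectional fit versus DMSO.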

Test [14] in a line: ATG_GRE_CIS: Attagene CIS-FACTORIAL HepG2 Assay for human Glucocorticoid Response Elements (GRE) (AID 2282947). Conditions: HepG2 GRE cis-reporter, Attagene multiplex mRNA; actives raise or lower the signal. The essentials:
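Transiently transfected HepG2 cells carrying GRE cis-reporter units (endogenous TF activity) dosed 24 h; reporter mRNA quantified by RT-PCR, 6-FAM labelling, HpaI digestion and capillary electrophoresis. Bidirectional fit versus DMSO baseline.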

Test [15] in a line: ATG_ISRE_CIS: Attagene CIS-FACTORIAL HepG2 Assay for human Interferon Regulatory Factor 1 (IRF1) binding to an Interferon-Stimulated Response Element (ISRE) (AID 2282948). Conditions: HepG2 ISRE cis-reporter (Attagene), mRNA transcription readout; actives raise or lower the signal. The essentials:
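Transfected HepG2 (multiple reporter transcription units, cis elements) dosed 24 h. RNA → oligo(dT) RT → PCR → 6-FAM primer extension → HpaI → CE. DMSO = negative control/baseline.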

The nature of test [16]: ATG_M_32_CIS: Attagene CIS-FACTORIAL HepG2 Assay for M32 Transcription Factor (Internal Marker) (AID 2282949).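 Also: background control marker of the multiplexed CIS panel rather than a real target.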 Conditions: HepG2 Attagene cis-factorial M32 reporter, mRNA; actives raise or lower the signal. The essentials:
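HepG2 cells transiently transfected with multiplexed cis-regulated reporter units, dosed 24 h. Reporter mRNA quantified by RT-PCR, 6-FAM labelling, HpaI digestion and capillary electrophoresis; bidirectional fit vs DMSO.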

Test [17] is described as follows: ATG_M_06_CIS: Attagene CIS-FACTORIAL HepG2 Assay for M06 Transcription Factor (Internal Marker) (AID 2282950). Conditions: HepG2 Attagene CIS-FACTORIAL M06 internal marker reporter; actives raise or lower the signal. The essentials:
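Fluorescence-labelled RT-PCR products from cis-promoter reporter units, cut with HpaI and resolved by capillary electrophoresis, give the signal. Cells are human HepG2, dosed for 24 h. Serves as background control, fitted relative to DMSO.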

For test [18], the target named is Hypoxia-inducible factor 1-alpha (Homo sapiens) (UniProt Q16665). Put plainly: ATG_HIF1a_CIS: Attagene CIS-FACTORIAL HepG2 Assay for human Hypoxia Inducible Factor 1 (HIF1A) (AID 2282951). Particulars: HepG2 Attagene cis-factorial HIF1a reporter transcription; actives raise or lower the signal. The essentials: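 After 24 h chemical exposure of reporter-transfected HepG2 cells, reporter cDNA was PCR-amplified, labelled by 6-FAM primer extension (2 min 95 C, 20 s 68 C, 10 min 72 C), HpaI-cut (2 h, 37 C) and analysed by CE.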

For test [19], the target named is Hepatocyte nuclear factor 6 (Homo sapiens) (UniProt Q9UBC0). Put plainly: ATG_HNF6_CIS: Attagene CIS-FACTORIAL HepG2 Assay for human Hepatocyte Nuclear Factor 6 (HNF6) (AID 2282952). Particulars: HepG2 Attagene cis-factorial HNF6 reporter transcription; actives raise or lower the signal. Summed up: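 HepG2, transient MRTU transfection (cis promoters); 24 h chemical exposure; total RNA → oligo(dT) RT → PCR → 6-FAM labelling → HpaI cut → CE; bidirectional fit vs DMSO.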

Test [20] addresses Retinoic acid receptor alpha (Homo sapiens) (UniProt P10276). The test is described as follows: ATG_DR5_RAR_CIS: Attagene CIS-FACTORIAL HepG2 Assay for human Retinoic Acid Receptor Alpha (RARE), DR5 submotif (AID 2282934). Particulars: HepG2 Attagene cis-factorial RARE DR5 reporter, mRNA; actives raise or lower the signal.

For the molecule `O=[N+]([O-])OCC(CO[N+](=O)[O-])(CO[N+](=O)[O-])CO[N+](=O)[O-]`, the outcome in test [1], in [2], in test [3], in test [4], in test [5] and in test [6] was inactive. Besides, the call in [7], in test [8], in test [9], in test [10], in test [11] and in test [12] was inactive. Besides, the result in [13], in [14], in test [15], in [16], in test [17] and in test [18] was inactive. The molecule was called inactive in test [19].

With `COP(C)(=O)OC`, the molecule was called inactive in test [1], in test [2], in [3], in [4], in [5] and in [6]. Also, the outcome in test [20], in test [7], in [8], in test [9], in [10] and in [11] was inactive. Besides, the result in [12], in test [14], in [15], in test [16], in test [17] and in test [18] was inactive. The result in test [19] was inactive.

Regarding `O=[N+]([O-])c1cccc([N+](=O)[O-])c1`, the result in test [1], in [2], in test [3], in test [5], in [6] and in test [7] was inactive. Further, the outcome in test [8], in test [9], in [10], in test [11], in test [12] and in test [13] was inactive. For the same molecule, the outcome in test [14], in test [15], in test [16], in test [17], in test [18] and in [19] was inactive.

The term AC50 denotes the concentration giving half of the maximal activity seen. Take `Cc1ccc([N+](=O)[O-])c([N+](=O)[O-])c1`: the molecule was classed as inactive in [1], in test [3], in test [4], in test [6], in [20] and in test [7]. The result in test [9], in [10], in test [11], in [12], in test [14] and in test [15] was inactive. Also, the call in test [16], in test [17], in [18] and in test [19] was inactive. For the same molecule, the half-maximal activity concentration (AC50) was active: 26.9 µM in [5] and active: 52.2 µM in test [8].

On to `Cc1c([N+](=O)[O-])cccc1[N+](=O)[O-]`, for which the molecule was classed as inactive in test [1], in test [2], in test [3], in test [4], in [5] and in test [6]. In addition, the outcome in test [20], in test [7], in test [8], in test [9], in [10] and in test [11] was inactive. Besides, the call in [12], in test [13], in [14], in test [15], in test [16] and in test [17] was inactive. Further, the result in [18] and in test [19] was inactive.

For the molecule `CC(C)OP(C)(=O)OC(C)C`, the outcome in test [1], in test [2], in test [3], in [5], in test [6] and in test [20] was inactive. Besides, the outcome in test [7], in [8], in test [9], in test [10], in test [11] and in [12] was inactive. The result in test [14], in test [15], in [16], in test [17], in [18] and in test [19] was inactive. For the same molecule, in test [4], the concentration at half-maximal activity (AC50) is active: 79.1 µM.
